Molecular target: Protein arginine N-methyltransferase 3 (Homo sapiens, UniProt O60678)
Test: Inhibition of PRMT3 (unknown origin) using biotinylated histone H4 (1 to 24 residues) as substrate in presence of [3H]SAM by scintillation proximity assay

The chains behind the UniProt entries cited, without tags or fusion partners. Where a name states a change or a piece, a line headed by the entry shows the natural chain unless it says otherwise.
UniProt O60678: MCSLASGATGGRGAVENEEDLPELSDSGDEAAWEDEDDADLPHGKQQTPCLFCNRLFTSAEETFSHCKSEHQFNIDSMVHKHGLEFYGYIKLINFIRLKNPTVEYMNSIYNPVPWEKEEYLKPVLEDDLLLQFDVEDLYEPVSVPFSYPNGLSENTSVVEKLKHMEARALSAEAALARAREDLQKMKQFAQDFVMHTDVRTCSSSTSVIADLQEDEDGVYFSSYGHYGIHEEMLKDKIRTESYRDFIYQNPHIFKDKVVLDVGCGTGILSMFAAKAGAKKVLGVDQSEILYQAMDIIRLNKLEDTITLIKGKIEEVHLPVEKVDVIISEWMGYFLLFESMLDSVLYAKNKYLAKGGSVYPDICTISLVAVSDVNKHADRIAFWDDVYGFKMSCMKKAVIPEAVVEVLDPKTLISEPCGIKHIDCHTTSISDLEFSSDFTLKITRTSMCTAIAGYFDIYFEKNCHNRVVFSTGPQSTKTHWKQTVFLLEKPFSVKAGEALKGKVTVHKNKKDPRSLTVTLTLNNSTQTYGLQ

IC50: 4 to 119 nM
SMILES: CC(C)Oc1ccc(-c2c[nH]cc2CN(C)CCN)cc1

Reference: ChEMBL document CHEMBL4396888, “Design and Synthesis of Potent, Selective Inhibitors of Protein Arginine Methyltransferase 4 against Acute Myeloid Leukemia” (J Med Chem, 2019)
